The test system of this test is PTP/SHP-1 activity in KPC tumor. Description: PTP/SHP-1 activity in KPC tumor in vivo. Set-up: species or system murine. To be noted: therapeutic treatment of KPC tumor. From the text: FIGS. 7A-7F depict that the inhibition of SHP-1 unleashes proinflammatory response and antigen presentation in solid tumor upon therapies. […] Low PTP/SHP-1 activity was found in untreated, homeostatic tumor. […] Similar data were obtained by studying colorectal carcinoma MC38.

Structures are written as SMILES.

The values that follow come from US20260325465A1, “SHP-1 INHIBITORS FOR TREATING CANCER” (MDX MANAGEMENT LLC, priority 2022, published 2026).

As for `Cn1cnc([N+](=O)[O-])c1Sc1ncnc2nc[nH]c12` [Azathioprine (AZA), Azathioprine], the “PTP/SHP-1 activity induced in tumor” value was “induced”.
